For the experiment, the target named is Interleukin enhancer-binding factor 3 (Homo sapiens, UniProt Q12906). Put plainly: Binding affinity to ILF3 (unknown origin) assessed as association rate constant at upto 1 uM by SPR method. For orientation: SPR reads the build-up and loss of mass on a sensor chip optically.

Amino acid sequences for entries named in this document (tags omitted).
UniProt Q12906, whole entry: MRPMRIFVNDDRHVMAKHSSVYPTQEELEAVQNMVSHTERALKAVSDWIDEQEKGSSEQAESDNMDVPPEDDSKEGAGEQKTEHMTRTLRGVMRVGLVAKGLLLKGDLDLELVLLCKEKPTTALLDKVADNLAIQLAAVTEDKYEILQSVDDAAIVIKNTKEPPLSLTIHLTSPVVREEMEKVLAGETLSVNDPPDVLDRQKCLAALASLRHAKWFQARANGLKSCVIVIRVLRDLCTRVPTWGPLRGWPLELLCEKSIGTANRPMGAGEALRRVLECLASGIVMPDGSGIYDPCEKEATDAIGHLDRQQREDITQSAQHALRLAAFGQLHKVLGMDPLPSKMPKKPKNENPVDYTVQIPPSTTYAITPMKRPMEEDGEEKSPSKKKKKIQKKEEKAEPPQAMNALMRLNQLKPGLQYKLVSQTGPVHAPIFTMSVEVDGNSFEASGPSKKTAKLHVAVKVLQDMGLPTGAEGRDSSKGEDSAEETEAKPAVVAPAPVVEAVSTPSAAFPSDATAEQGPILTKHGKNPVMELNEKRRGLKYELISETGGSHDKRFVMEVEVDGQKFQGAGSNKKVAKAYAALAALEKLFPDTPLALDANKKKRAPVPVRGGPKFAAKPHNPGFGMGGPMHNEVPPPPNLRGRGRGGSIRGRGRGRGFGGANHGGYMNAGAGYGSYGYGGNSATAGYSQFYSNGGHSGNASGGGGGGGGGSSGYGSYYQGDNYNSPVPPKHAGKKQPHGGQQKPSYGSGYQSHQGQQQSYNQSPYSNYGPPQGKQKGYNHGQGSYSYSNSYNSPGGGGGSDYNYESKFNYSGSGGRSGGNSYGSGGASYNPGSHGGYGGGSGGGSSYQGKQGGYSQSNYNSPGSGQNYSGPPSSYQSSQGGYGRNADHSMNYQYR

Structures are written as SMILES.

`Cn1c[n+](C)c2c1C(=O)c1cc3ccccc3cc1C2=O`: the K came to 360000 M⁻¹ s⁻¹.

For the compound `COCC[n+]1c2c(n(Cc3cnccn3)c1C)C(=O)c1ccccc1C2=O.[Br-]` [SEPANTRONIUM BROMIDE], the K was determined as 110000 M⁻¹ s⁻¹.
